This is an account of results in article PMC6271771, “4-Amino-substituted Benzenesulfonamides as Inhibitors of Human Carbonic Anhydrases” (Molecules, 2014).

The chains behind the UniProt entries cited, without tags or fusion partners. Residues count along the entry.
UniProt P23280, 18-308: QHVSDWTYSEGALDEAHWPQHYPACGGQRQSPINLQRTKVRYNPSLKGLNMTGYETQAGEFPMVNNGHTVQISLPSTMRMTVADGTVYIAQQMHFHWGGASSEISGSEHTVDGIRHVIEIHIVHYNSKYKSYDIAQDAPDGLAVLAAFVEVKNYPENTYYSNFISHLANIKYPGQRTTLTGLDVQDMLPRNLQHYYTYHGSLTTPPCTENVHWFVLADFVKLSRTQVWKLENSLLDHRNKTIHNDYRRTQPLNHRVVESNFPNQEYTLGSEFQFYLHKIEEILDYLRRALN
UniProt O43570, 30-289 limits assumed: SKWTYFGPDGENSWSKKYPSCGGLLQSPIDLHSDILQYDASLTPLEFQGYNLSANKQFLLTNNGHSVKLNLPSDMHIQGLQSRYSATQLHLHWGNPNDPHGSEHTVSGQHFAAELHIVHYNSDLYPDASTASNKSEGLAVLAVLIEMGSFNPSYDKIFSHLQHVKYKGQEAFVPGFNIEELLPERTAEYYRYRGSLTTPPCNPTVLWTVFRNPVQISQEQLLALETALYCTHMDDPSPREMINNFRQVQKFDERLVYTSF

pKd: −log10 of the molar value.

The target of one experiment is T1, CA VI (Homo sapiens, UniProt P23280).
T1 construct: made in house
The experiment is described as follows: Fluorescent thermal shift assay (FTSA), CA VI. Conditions: Kd (FTSA) versus Ki of ref 35. Format: binding.

The next experiment concerns the target CA XII (Homo sapiens, UniProt O43570). The experiment is described as follows: Fluorescent thermal shift assay (FTSA), CA XII. It counts as binding. Also on record: made in house. The note with it: pH 7.0, 37 °C, read-out: Compound Dissociation Constants Kd for CA XII.

What is called pKd is the Kd on a negative log10 scale, so that one unit is a factor of ten. Take `Nc1ccc(S(N)(=O)=O)cc1` [Compound 1, 4-Aminobenzene-1-sulfonamide, reference compound]: at CA VI, the “difference between own Kd and Ki of Murakami and Sly, CA VI” value is 5.7 times. The pKd at CA XII was 4.17.
